In patent EP4269424A1, “NOVEL ANTIVIRAL COMPOUNDS AND USE THEREOF” (priority 2022, dated 2023):

Biological target: G3BP1 (human), Q13283
Experiment: ITC at 25 °C, peptide titrated into G3BP1

Binder | Kd
LTFGDFDEHEASGITFGDFDDW (modifications not checked) [G3BPi spacer peptide without CPP] | 1500 nM
LTFGDFDEHEALASGITFGDFDDW (modifications not checked) [G3BPi spacer2 peptide without CPP] | 4400 nM
